Several values for one entry are separate records, joined by “and”; a condition that tells them apart may be missing. Equal values may be shown once. The entries are a selection whose mix differs from that of the whole data set. Activity calls are given as the source filed them.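 The calls were made as follows: active = inhibition above about 70% (limit read from the data); inactive = the rest.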
These molecules were tested against 14-3-3 protein zeta/delta (Bos taurus) (UniProt P63103) (assay: disruptors of 14-3-3 zeta phospho-Bad complex – biochemical, TR-FRET, bovine 14-3-3 zeta, primary screen (AID 781;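 also: 0% = full 14-3-3 plus peptide FRET controls and 100% = background without 14-3-3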)). Details: TR-FRET 14-3-3zeta/Dy647-pBad peptide displacement, 1 h; at 21.7 µM; stronger effect = higher value.

The chains behind the UniProt entries cited, without tags or fusion partners. Where a name states a change or a piece, a line headed by the entry shows the natural chain unless it says otherwise.
UniProt P63103: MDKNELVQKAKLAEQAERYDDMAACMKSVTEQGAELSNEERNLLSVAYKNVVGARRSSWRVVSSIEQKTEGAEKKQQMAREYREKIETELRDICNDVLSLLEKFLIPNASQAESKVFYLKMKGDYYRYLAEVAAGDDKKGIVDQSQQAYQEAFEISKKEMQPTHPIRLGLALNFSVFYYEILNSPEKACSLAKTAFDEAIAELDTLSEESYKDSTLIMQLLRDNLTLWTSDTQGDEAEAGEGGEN

Row | Compound | inhibition
1 | CC(C)C(=O)NC(Sc1ccccc1)C(Cl)(Cl)Cl (centres undefined) | inactive: 3.13%
2 | O=P(Nc1nccs1)(c1ccccc1)c1ccccc1 | inactive: -5.52%
3 | c1nnnn1CCn1cnnn1 | inactive: -6.43%
4 | O=P(Nc1ccccn1)(c1ccc(Br)cc1)c1ccc(Br)cc1 | inactive: -5.55%
5 | C[C@H]1OP(=O)(Oc2ccccc2)[C@H](O)[C@H](O)[C@H]1N=[N+]=[N-] (some centres undefined) | inactive: 0.13%
6 | O=P(Nc1nc2ccccc2s1)(c1ccccc1)c1ccccc1 | inactive: -1.97%
7 | O=[As](O)(c1ccccc1)c1ccc(O)cc1 | inactive: -0.23%
8 | O=[N+]([O-])c1ncn(CCn2cnc([N+](=O)[O-])n2)n1 | inactive: 1.62%
9 | CC(=O)NC(SC(=S)N(C)C)C(Cl)(Cl)Cl (centres undefined) | inactive: -2.3%
10 | O=C(OC1CN2CCC1CC2)c1cccc(Cl)c1 (centres undefined) | inactive: 15.1%
11 | C(Cc1nn[nH]n1)Cc1nn[nH]n1 | inactive: 17.2%
12 | Nc1ccc([As](=O)(O)c2ccc([N+](=O)[O-])cc2)cc1 | inactive: -1.43%
13 | CCOC(=O)NC(Sc1ccccc1)C(Cl)(Cl)Cl (centres undefined) | inactive: 4.01%
14 | Cc1ccc(NP(=O)(Oc2cccc(C)c2)Oc2cccc(C)c2)nc1 | inactive: 4.56%
15 | c1ccc(-c2nn[nH]n2)c(-c2nn[nH]n2)c1 | inactive: -15.5%
16 | CCNC(=S)/N=C(\N)N[N+](=O)[O-] | inactive: -14%
17 | O=C(NC1CCS(=O)(=O)C1)NP(=S)(Oc1ccccc1)Oc1ccccc1 (centres undefined) | inactive: 0.08%
18 | CCC(=O)N1C2C3N(C(=O)CC)C1C1N(C(=O)CC)C(C(N1C(=O)CC)N3C(=O)CC)N2C(=O)CC | inactive: -12.3%
19 | Cc1ccc(OP(=O)(Nc2ccccn2)Oc2ccc(C)cc2)cc1 | inactive: -4.25%
20 | CC(=O)NC(SC(=S)N(CC(C)C)CC(C)C)C(Cl)(Cl)Cl (centres undefined) | inactive: -6.49%
21 | COC(=O)c1cc2c(s1)N=C(c1ccccc1)N(C)P2(=O)N1CCOCC1 (centres undefined) | inactive: 5.9%
22 | O=c1c2cc([N+](=O)[O-])ccc2[nH]c2c([N+](=O)[O-])cc([N+](=O)[O-])cc12 | inactive: -5.61%

Row | Compound | inhibition
23 | CN(C)C(=O)Oc1noc2ccccc12 | inactive: 4.39%
24 | Cc1ccccc1OP(=O)(Nc1ccccn1)Oc1ccccc1C | inactive: 5.62%
25 | CCOc1ccc(C2=NCC(CBr)S2)cc1 (centres undefined) | inactive: 14.8%
26 | O=P1(Nc2nc3ccc(Cl)cc3s2)COc2ccccc2O1 (centres undefined) | inactive: 37.1%
27 | CC(C)(C)C(=O)NC(Sc1ccccc1)C(Cl)(Cl)Cl (centres undefined) | inactive: -5.55%
28 | C[C@H]1OP(=O)(Oc2ccccc2)C[C@@H]2O[C@@H]21 (some centres undefined) | inactive: -1.8%
29 | C[C@@H]1C=CCP(=O)(Oc2ccccc2)O1 (some centres undefined) | inactive: 0.26%
30 | CC(=O)Nc1ccc(Oc2c([N+](=O)[O-])cc([N+](=O)[O-])cc2[N+](=O)[O-])cc1 | inactive: 18.6%
31 | CC(=O)Nc1ccc([As](=O)(O)O)c(O)c1 | inactive: -4.18%
32 | Cc1ccc(N/C(=N/P(=O)(N2CCOCC2)N2CCOCC2)N2CCOCC2)cc1 | inactive: -19.2%
33 | NC(=O)c1cc([N+](=O)[O-])cc([N+](=O)[O-])c1N | inactive: -1.18%
34 | CN1CCCC(OC(=O)C(c2ccccc2)c2ccccc2)C1 (centres undefined) | inactive: 22.2%
35 | Clc1ccc(Cl)c(NC2=NCC(CBr)S2)c1 (centres undefined) | inactive: -1.7%
36 | Cc1ccc(OP(=O)(Nc2nccs2)Oc2ccc(C)cc2)cc1 | inactive: 3.39%
37 | COc1ccccc1OP(=O)(Nc1ccc(C)cn1)Oc1ccccc1OC | inactive: 6.13%
38 | O=C(NC(Sc1ccncn1)C(Cl)(Cl)Cl)c1ccccc1 (centres undefined) | inactive: -3.32%
39 | Cc1c2non([O-])c-2c(C)[n+](=O)[n+]1[O-] | inactive: 7.23%
40 | Oc1ccccc1CNc1ccccn1 | inactive: -0.63%
41 | Nc1cc(N)c2nonc2c1[N+](=O)[O-] | inactive: 2.06%
42 | CC(C)CC(=O)NC(Sc1ccc(Cl)cc1)C(Cl)(Cl)Cl (centres undefined) | inactive: -5.69%
43 | O=P(Nc1nc2ccc(Cl)cc2s1)(c1ccccc1)c1ccccc1 | inactive: -7.88%
44 | CC(=O)Nc1ccc([As](=O)(O)O)cc1 | inactive: -17.4%

Row | Compound | inhibition
45 | O=C(O)c1ccccc1[As](=O)(O)O | inactive: -5.66%
46 | Cc1ccc(NP(=O)(Oc2ccccc2F)Oc2ccccc2F)nc1 | inactive: 2.34%
47 | Cc1cc(SC(NC(=O)c2ccc(F)cc2)C(Cl)(Cl)Cl)ncn1 (centres undefined) | inactive: 9.93%
48 | CCOP(=O)(Nc1ccccc1)OCC | inactive: -4.5% and inactive: -11.6%
49 | Nc1cccc2ccc([As](=O)(O)O)cc12 | inactive: -2.11%
50 | O=C(Nc1cc([As](=O)(O)O)ccc1O)c1ccccc1 | inactive: -1.06%
51 | O=[N+]([O-])c1ncn(CCn2ncnc2[N+](=O)[O-])n1 | inactive: -0.02%
52 | CC(C)(C)C(=O)NC(Sc1ccncn1)C(Cl)(Cl)Cl (centres undefined) | inactive: -3.77%
53 | O=C(O)CNc1ccc([As](=O)(O)O)cc1 | inactive: -1.31%
54 | O=[N+]([O-])c1cccc(NC2=NCC(CBr)S2)c1 (centres undefined) | inactive: 5.39%
55 | COc1ccc(C2=NCC(CBr)S2)cc1 (centres undefined) | inactive: -0.58%
56 | CCc1nc2c(n1)c1c(non1O)c1c2no[n+]1[O-] | inactive: 8.53%
57 | O=[N+]([O-])c1cc([N+](=O)[O-])c(CCNc2ccccc2)c([N+](=O)[O-])c1 | inactive: -12.9%
58 | Cc1ccc(NP(=O)(Oc2ccccc2)Oc2ccccc2)nc1 | inactive: -2.43%
59 | O=[N+]([O-])c1cccc2n[nH]nc12 | inactive: 11.7%
60 | CC(=O)N1C2C3N(C(C)=O)C1C1N(C(C)=O)C(C(N1C(C)=O)N3C(C)=O)N2C(C)=O | inactive: -7.35%
61 | CCN(/C(=N/P(=O)(N1CCOCC1)N1CCOCC1)N1CCOCC1)c1ccc(OC)cc1 | inactive: -5.89%
62 | C[N+]1=C2C=CC=CC=C2SC12C([N+](=O)[O-])=CC([N+](=O)[O-])=C[C-]2[N+](=O)[O-] (centres undefined) | inactive: -3.7%
63 | Nc1ccc([As](=O)(O)c2ccc(N)cc2)cc1 | inactive: -4.36%
64 | CC1CCN(C(=O)Oc2c(Cl)cc(Cl)c3cccnc23)CC1 | inactive: 0.95%

Source: PubChem BioAssay AID781 (Emory University Molecular Libraries Screening Center, 2007)
